Only a part is listed here, and it is no random draw. Calls of active or inactive are those of the source. No stated cut-off is given here; in the data, active means inhibition above about 23%; inactive means the rest.

Chains of the proteins cited; added tags and fusions are not shown.
UniProt Q00G26, whole entry, looked up: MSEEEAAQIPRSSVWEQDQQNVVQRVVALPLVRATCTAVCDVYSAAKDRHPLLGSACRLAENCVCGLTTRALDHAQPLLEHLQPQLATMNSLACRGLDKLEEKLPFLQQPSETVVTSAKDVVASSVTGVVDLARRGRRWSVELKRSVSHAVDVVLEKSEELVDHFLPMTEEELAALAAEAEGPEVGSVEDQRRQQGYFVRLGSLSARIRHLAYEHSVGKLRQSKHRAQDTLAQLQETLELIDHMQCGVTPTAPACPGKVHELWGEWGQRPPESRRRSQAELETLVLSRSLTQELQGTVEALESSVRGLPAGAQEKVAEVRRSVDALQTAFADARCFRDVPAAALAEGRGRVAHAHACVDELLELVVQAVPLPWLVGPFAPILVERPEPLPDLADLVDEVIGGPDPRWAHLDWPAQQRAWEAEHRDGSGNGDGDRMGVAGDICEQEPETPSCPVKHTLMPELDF
UniProt Q8WTS1, whole entry, looked up: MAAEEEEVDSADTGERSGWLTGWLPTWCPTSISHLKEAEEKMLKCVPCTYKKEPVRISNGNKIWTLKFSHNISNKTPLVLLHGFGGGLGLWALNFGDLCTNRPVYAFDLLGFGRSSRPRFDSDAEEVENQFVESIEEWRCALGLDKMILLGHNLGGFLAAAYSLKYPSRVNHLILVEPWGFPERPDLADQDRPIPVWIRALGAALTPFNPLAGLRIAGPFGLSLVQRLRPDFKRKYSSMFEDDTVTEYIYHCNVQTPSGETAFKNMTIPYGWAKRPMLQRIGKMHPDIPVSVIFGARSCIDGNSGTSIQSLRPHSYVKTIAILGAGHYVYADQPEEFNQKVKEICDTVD

This experiment concerns the target Perilipin-5 (Homo sapiens) + 1-acylglycerol-3-phosphate O-acyltransferase ABHD5 (Homo sapiens) (UniProt Q00G26+Q8WTS1). Nature of the experiment: ABHD5-PLIN5 interaction inhibitors, confirmation, biochemical, luminescence (AID 651612).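 Further: 0% = DMSO vehicle wells.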 The conditions noted are these: at 4 µM, stronger effect = higher value.
Regarding `CCC(=O)N(c1ccccc1)C1(COC)CCN(CCc2cccs2)CC1`, the inhibition is active: 75.8%.

For orientation: inhibition means the change of the read-out against control, counted positive when it falls.

Values taken from PubChem BioAssay AID651612 (The Scripps Research Institute Molecular Screening Center, 2012).
